Species on record: Homo sapiens
Assay: Selectivity ratio of IC50 for human presenilin-2 to IC50 for human presenilin-1

`CP1(=O)OCC2(CCC[C@@]3(S(=O)(=O)c4ccc(Cl)cc4)c4c(F)ccc(F)c4OC[C@@H]23)CO1` (stereo partly specified) gave a Ratio IC50 of 33.
